Results: BindingDB's records for patent US10214478 (2019)

Molecular target: Glutamate receptor ionotropic, NMDA 1 (Rattus norvegicus, UniProt P35439)
Test: Protective Effects of Compounds on Primary Cerebellum Granule Cells of Rats
Method: Isolated primary cerebellum granule cells of infant rats were inoculated in 96-well plates with 1.2×10^5/well by using 10% FBS+25 mM KCl+2 mM Glutamine+1% of double-antibody BME medium. After 24 hours, cytarabine with a final concentration of 10 iM was added to inhibit the proliferation of neurogliocyte cells. After the day 4, glucose with the final concentration of 5 mM was added every four days to complement energy metabolism and water evaporation of cells. The materials were placed in a cell incubator (37° C., 5% CO2) to be cultured for 10 days. A 200 iM of glutamate was used to induce the excitotoxic injury of the primary cerebellum granule cells, with test groups of normal control group, glutamate group, pretreatment groups with different memantine nitrate compounds, and pretreatment control group with memantine. In the testing groups, the compounds of NM-001, NM-002, NM-003, NM-004, NM-005, NM-008, NM-009, NM-011, NM-012 and memantine were respectively added. After pre-protection for 2 h, 200 iM of glutamate was added to induce cell damage for 24 h, and then MTT was added to culture for 4 h. […] After blending with shaking, the light absorption values under 570 nm wavelength was measured with a microplate reader, and the viability of cells was calculated. Cell viability (%)=absorbance of different groups/absorbance of the normal control group×100%.

EC50: 2720 nM
SMILES: CC12CC3CC(C)(C1)CC(N)(C3)C2 [US10214478, Compound memantine]
